{"source": "paper PMC5618191", "about": "“The Natural Fungal Metabolite Beauvericin Exerts Anticancer Activity In Vivo: A Pre-Clinical Pilot Study” (Toxins, 2017)", "key": {"[1]": {"test": "Beauvericin distribution by LC-MS/MS, allograft model", "type": "in vivo, BALB/c mice"}, "[2]": {"test": "Serum AST, ALT, bilirubin and creatinine (Reflotron Plus)", "type": "in vivo, CB-17/SCID mice"}, "[3]": {"tested_on": "CT-26-derived tumor allografts", "test": "CT-26 allograft mouse model", "type": "in vivo, BALB/c mice", "conditions": "5 mg/kg bw/day i.p.", "procedure": "(§1) For the allograft experiment, 4 × 10^5 CT-26 cells were resuspended in 50 µL RPMI medium and injected subcutaneously into the right flank of eight, 6–8 weeks old, male BALB/c mice that were obtained from Harlan Laboratories (San Pietro al Natisone, Italy). Likewise, in the xenograft experiment, 1 × 10^6 KB-3-1 cells in 50 µL RPMI medium were injected subcutaneously into the right flank of eight, 6–8 weeks old, male CB-17/IcrHanHsd-Prkdc severe combined immunodeficiency (SCID) mice. Of each group, four animals were randomly assigned to the control or to the treatment group. […] Effects of the treatment were assessed by daily recording of tumor size with a microcaliper and parameters indicating the animals’ overall health condition (e.g., body weight, fatigue, grooming, ragged coat, food and fluid consumption). Tumor volumes (mm^3) were calculated using the formula: (length × width^2)/2. […]\n(§2) From each mouse from both the control (n = 4) and the treatment group (n = 4), tissue samples were formalin-fixed, paraffin-embedded and used to prepare serial 3 µm sections. […] Numbers of the three cell fractions were analyzed in a blinded setup in at least four images of H/E-stained tumor sections, taken under a 40 × objective microscope lens. […]"}, "[4]": {"test": "Beauvericin distribution by LC-MS/MS, xenograft model", "type": "in vivo, CB-17/SCID mice"}, "[5]": {"tested_on": "KB-3-1-derived tumor xenografts", "test": "KB-3-1 xenograft mouse model", "type": "in vivo, CB-17/SCID mice", "conditions": "5 mg/kg bw/day", "procedure": "as §1, §2"}, "[6]": {"parameters": "method as in PMID 26892719", "conditions": "after three days of treatment; cited from earlier work"}, "[7]": {"conditions": "5 mg/kg bw/day i.p., 9 days of treatment"}, "[8]": {"conditions": "5 mg/kg bw/day, two cycles, one day after therapy"}, "[9]": {"conditions": "end of the treatment period (one day after therapy), detection limit"}, "[10]": {"conditions": "two weeks after the last treatment"}}}
{"substance": "beauvericin", "values": [{"measurement": "Beauvericin level in adipose tissue", "setting": "[1]; [7]", "value": "3701.3 ± 1091.5", "unit": "µg/kg"}, {"measurement": "Beauvericin level in colon", "setting": "[1]; [7]", "value": "178.5 ± 170.1", "unit": "µg/kg"}, {"measurement": "Beauvericin level in serum", "setting": "[1]; [7]", "value": "35.7 ± 13.5", "unit": "µg/kg"}, {"measurement": "Beauvericin level in CT-26 tumors", "setting": "[1]; 5 mg/kg bw/day i.p., 9 days of treatment, 24 h after last injection", "value": "81.0 ± 46.6", "unit": "µg/kg"}, {"measurement": "Accumulation in adipose tissue compared to serum", "setting": "[1]; allograft model", "value": 103.6, "unit": "fold"}, {"measurement": "Accumulation in colon compared to serum", "setting": "[1]; allograft model", "value": 4.9, "unit": "fold"}, {"measurement": "Accumulation in feces compared to serum", "setting": "[1]; allograft model", "value": 19.5, "unit": "fold"}, {"measurement": "Urine level compared to serum", "setting": "[1]; allograft model", "value": 0.08, "unit": "fold"}, {"measurement": "Serum level of ALT", "setting": "[2]; [8]", "value": "23.3 ± 0.6", "unit": "U/L"}, {"measurement": "Serum level of AST", "setting": "[2]; [8]", "value": "115.3 ± 66.0", "unit": "U/L"}, {"measurement": "Serum creatinine", "setting": "[2]; [9]", "value": "< 0.5", "unit": "mg/dL"}, {"measurement": "Total bilirubin in serum", "setting": "[2]; [9]", "value": "< 0.5", "unit": "mg/dL"}, {"measurement": "Bilirubin in serum", "setting": "[2]; [10]", "value": "0.6 ± 0.4", "unit": "mg/dL"}, {"measurement": "Serum level of ALT", "setting": "[2]; [10]", "value": "23.1 ± 4.9", "unit": "U/L"}, {"measurement": "Serum level of AST", "setting": "[2]; [10]", "value": "117.3 ± 23.3", "unit": "U/L"}, {"measurement": "Serum creatinine", "setting": "[2]; two weeks after the last treatment, detection limit", "value": "< 0.5", "unit": "mg/dL"}, {"measurement": "Systemic toxicity (behavior monitoring)", "setting": "[3]", "value": "no indication for beauvericin-attributed systemic toxicity"}, {"measurement": "Beauvericin level in KB-3-1 tumor", "setting": "[4]; [7]", "value": "99.9 ± 35.7", "unit": "µg/kg"}, {"measurement": "Beauvericin level in adipose tissue", "setting": "[4]; [7]", "value": "2600.5 ± 513.9", "unit": "µg/kg"}, {"measurement": "Beauvericin level in feces", "setting": "[4]; [7]", "value": "912.9 ± 256.8", "unit": "µg/kg"}, {"measurement": "Beauvericin level in kidney", "setting": "[4]; [7]", "value": "305.7 ± 151.0", "unit": "µg/kg"}, {"measurement": "Levels of beauvericin in urine", "setting": "[4]; [7]", "value": "below the detection limit"}, {"measurement": "Accumulation in KB-3-1 tumor compared to serum", "setting": "[4]; xenograft model", "value": 1.8, "unit": "fold"}, {"measurement": "Enrichment in colon compared to serum", "setting": "[4]; xenograft model", "value": 3.9, "unit": "fold"}, {"measurement": "Adverse treatment effects (body weight, behavior)", "setting": "[5]", "value": "did not show any indications for possible adverse treatment effects"}, {"measurement": "Metabolites in mice", "setting": "[6]", "value": "no metabolites of beauvericin could be detected"}]}
